Legend:
[1] = system: normal specimens (BM, CB, MPB)

Which “Cytotoxic AML” value (primary AML specimens) does the source give for `O=C1N=C(O)SC1=Cc1ccc2c(c1)OC(F)(F)O2` [5-(2,2-Difluoro-benzo[1,3]dioxol-5-ylmethylene)-thiazolidine-2,4-dione] here?
The value was “No”.

And the “Cytotoxic Normal” value [1]?
Its value is “No”.

From patent US9180118B2, “Thiadiazolidinone derivatives” (University of Rochester, priority 2006, dated 2015)
